The results in this text go back to BindingDB's records for doi:10.1007/pl00005133 (Eli Lilly, 1998).

Chains of the proteins cited; added tags and fusions are not shown.
UniProt P41595, whole entry: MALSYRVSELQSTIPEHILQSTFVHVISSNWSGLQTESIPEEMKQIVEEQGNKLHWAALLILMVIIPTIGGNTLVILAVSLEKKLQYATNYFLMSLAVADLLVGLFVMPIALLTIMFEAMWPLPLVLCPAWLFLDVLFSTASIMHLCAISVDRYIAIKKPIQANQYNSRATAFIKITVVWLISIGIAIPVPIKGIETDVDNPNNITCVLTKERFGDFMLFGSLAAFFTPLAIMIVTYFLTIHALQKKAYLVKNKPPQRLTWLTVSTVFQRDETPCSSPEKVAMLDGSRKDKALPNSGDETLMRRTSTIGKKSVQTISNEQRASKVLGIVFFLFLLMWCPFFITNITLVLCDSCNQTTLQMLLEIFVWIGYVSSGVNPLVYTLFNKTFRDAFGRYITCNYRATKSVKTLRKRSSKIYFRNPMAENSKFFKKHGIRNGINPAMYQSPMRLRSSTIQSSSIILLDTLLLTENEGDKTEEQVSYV

This assay addresses 5-hydroxytryptamine receptor 2B (Homo sapiens, UniProt P41595).

`Clc1cccc(N2CCNCC2)c1` [mCPP] yielded an inhibition constant (Ki) of 10.5 nM.

Consider `CSc1ccc2c(c1)C(N1CCN(C)CC1)Cc1ccccc1S2` (configuration not stated) [methanesulfonic acid;1-methyl-4-(3-methylsulfanyl-5,6-dihydrobenzo[b][1]benzothiepin-5-yl)piperazine], for which the affinity, expressed as Ki, was 0.58 nM.

By Ki is commonly meant a measure of affinity in units of concentration, obtained from inhibition or displacement. Low readings indicate higher affinity, high ones lower affinity.
